Measurements: US20250214976A1, “GPR35 MODULATORS AND USES THEREOF” (Crossignal Therapeutics, Inc., priority 2022, published 2025)

Protein sequences, listed by entry. Tags and fused reporters are not part of them.
UniProt Q9HC97, whole entry: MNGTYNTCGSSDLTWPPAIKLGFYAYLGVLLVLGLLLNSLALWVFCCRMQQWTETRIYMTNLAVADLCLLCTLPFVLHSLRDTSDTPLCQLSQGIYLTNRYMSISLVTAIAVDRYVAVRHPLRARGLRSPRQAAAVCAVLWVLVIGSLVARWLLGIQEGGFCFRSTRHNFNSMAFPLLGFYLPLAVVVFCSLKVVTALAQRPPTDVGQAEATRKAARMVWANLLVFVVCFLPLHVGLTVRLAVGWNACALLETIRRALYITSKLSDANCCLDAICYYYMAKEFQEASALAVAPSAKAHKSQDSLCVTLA

Target: human GPR35 (Homo sapiens, UniProt Q9HC97)
Assay: Luciferase Reporter Assay (YAP responsive element) in HEK293 cells stably transfected with human GPR35
Conditions: read-out: Luciferase Reporter (IC50), overnight incubation
Protocol: HEK293 cells stably transfected with human GPR35 were maintained in Dulbecco's Modified Eagle Medium (DMEM) supplemented with 10% FBS and 300 μg/mL Zeocin and 200 μg/mL Hygromycin at 37° C., 10% CO2. On Day 1, cells were plated in poly-D-lysine coated 96-well tissue culture plate in regular growth medium (DMEM/10% FBS/300 μg/mL Zeocin/200 μg/mL Hygromycin. On the next day, luciferase reporter plasmid DNA with YAP responsive element was transfected into cells using lipofectamine 2000 (Invitrogen) following manufacture's protocol. After transfection for 6 hr., cells were treated with testing compounds in fasting DMEM medium (phenol red free, FBS free) at varying compound concentrations ranging from 10 μM to […] in a 3-fold serial diluted fashion. After an overnight incubation, the luciferase activities were measured with SteadyLite Plus Kit (PerkinElmer) according to manufacturer's protocol. IC50 was determined by fitting the dose-response data to a four-parameter logistic curve using GraphPad Prism.
The symbol “+” indicates IC50 is greater than […]. “++” indicates IC50>100 nM but ≤[…]. “+++” indicates IC50≤100 nM.

IC50: < 0.1 µM
Compound: O=C(Nc1ccc(OC2CC(F)(F)C2)c(F)c1)c1coc2cc(Oc3nnn[nH]3)c(F)cc12
